{"source": "patent US20090118285A1", "about": "“USE OF KCNQ-OPENERS FOR TREATING OR REDUCING THE SYMPTOMS OF SCHIZOPHRENIA” (H. Lundbeck A/S, priority 2006, published 2009)", "assay": "in vivo", "conditions": "Wistar, rat, sc", "data": [{"smiles": "Cc1cc2c(s1)Nc1ccccc1N=C2N1CCN(C)CC1", "note": "[Olanzapine]", "values": [{"measurement": "ED50 at 2 h", "result": 0.72, "unit": "mg/kg"}]}]}
